Experimental findings from patent US9868763B2, “Modulators of protease activated receptors” (The University of Queensland, priority 2011, dated 2018) are described below.

The assay addresses T1, PAR2 (Homo sapiens, UniProt P55085).
T1 sequence (P55085 26-397): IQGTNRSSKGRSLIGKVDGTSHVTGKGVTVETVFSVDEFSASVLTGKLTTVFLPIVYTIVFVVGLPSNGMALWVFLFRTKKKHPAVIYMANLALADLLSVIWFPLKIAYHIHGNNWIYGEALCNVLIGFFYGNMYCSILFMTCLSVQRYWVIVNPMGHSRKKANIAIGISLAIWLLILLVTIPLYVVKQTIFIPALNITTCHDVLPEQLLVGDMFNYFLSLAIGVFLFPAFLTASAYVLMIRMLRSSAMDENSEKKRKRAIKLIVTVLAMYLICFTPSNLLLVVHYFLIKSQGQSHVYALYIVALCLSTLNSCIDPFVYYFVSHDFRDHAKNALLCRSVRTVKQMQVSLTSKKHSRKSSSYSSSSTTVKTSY
The assay can be described thus: PAR2 agonist inhibition (antagonism): intracellular Ca2+ release in HT29 cells. The following applies: other ligands; inhibiting Ca2+ release in HT29 cells; 30 min pre-incubation, agonist at EC80. It counts as cell-based. Further details: endogenous in cells; host or cells: HT29 (human colorectal adenocarcinoma). The method, then:
Cells are seeded overnight in 96-well black walled, clear bottomed, plate at approximately 2×10^4 to 4×10^5 cells per well. […] The cells are then washed twice with HBSS and transferred to a Polarstar spectrofluorimeter (BMG, Durham N.C.).
The cells are prepared as outlined above then treated with the ‘putative’ antagonist 30 min prior to the addition of either trypsin or a synthetic agonist at a concentration equal to the agonists EC80.
The cells were then treated with 1 μM of the PAR2 agonist 2f-LIGRLO-NH2 (FIG. 2A, n=5) or 100 nM Trypsin (FIG. 2B, n=1). Each data point represents mean±SEM. Net changes in fluorescence were calculated as a percentage relative to the maximum response given 1 μM 2f-LIGRLO-NH2 or 100 nM Trypsin. Changes in fluorescence (% response) were plotted against logarithmic compound concentrations. The half maximal inhibitory concentration (IC50) values were derived from the dose response curve using a nonlinear regression curve in Graphpad Prism v5.

What is called IC50 is the concentration that gives 50% inhibition. In the case of `CC[C@H](C)[C@@H](NC(=O)[C@H](CC1CCCCC1)NC(=O)c1cc(N)no1)C(=O)N1CCC2(C=Cc3ccccc32)CC1` [Compound 42, 5-(3-amino-isoxazoyl)-Cha-Ile-spiro[indene-1,4′-piperidine]], the IC50 stood at 1200 nM. In other words, the single-digit micromolar range.
